Data taken from paper PMC6423038, “Deferiprone: Pan-selective Histone Lysine Demethylase Inhibition Activity and Structure Activity Relationship Study” (Scientific Reports, 2019).

By UniProt entry, the sequences of proteins in these tests, tags left out.
UniProt O15550, whole entry, looked up: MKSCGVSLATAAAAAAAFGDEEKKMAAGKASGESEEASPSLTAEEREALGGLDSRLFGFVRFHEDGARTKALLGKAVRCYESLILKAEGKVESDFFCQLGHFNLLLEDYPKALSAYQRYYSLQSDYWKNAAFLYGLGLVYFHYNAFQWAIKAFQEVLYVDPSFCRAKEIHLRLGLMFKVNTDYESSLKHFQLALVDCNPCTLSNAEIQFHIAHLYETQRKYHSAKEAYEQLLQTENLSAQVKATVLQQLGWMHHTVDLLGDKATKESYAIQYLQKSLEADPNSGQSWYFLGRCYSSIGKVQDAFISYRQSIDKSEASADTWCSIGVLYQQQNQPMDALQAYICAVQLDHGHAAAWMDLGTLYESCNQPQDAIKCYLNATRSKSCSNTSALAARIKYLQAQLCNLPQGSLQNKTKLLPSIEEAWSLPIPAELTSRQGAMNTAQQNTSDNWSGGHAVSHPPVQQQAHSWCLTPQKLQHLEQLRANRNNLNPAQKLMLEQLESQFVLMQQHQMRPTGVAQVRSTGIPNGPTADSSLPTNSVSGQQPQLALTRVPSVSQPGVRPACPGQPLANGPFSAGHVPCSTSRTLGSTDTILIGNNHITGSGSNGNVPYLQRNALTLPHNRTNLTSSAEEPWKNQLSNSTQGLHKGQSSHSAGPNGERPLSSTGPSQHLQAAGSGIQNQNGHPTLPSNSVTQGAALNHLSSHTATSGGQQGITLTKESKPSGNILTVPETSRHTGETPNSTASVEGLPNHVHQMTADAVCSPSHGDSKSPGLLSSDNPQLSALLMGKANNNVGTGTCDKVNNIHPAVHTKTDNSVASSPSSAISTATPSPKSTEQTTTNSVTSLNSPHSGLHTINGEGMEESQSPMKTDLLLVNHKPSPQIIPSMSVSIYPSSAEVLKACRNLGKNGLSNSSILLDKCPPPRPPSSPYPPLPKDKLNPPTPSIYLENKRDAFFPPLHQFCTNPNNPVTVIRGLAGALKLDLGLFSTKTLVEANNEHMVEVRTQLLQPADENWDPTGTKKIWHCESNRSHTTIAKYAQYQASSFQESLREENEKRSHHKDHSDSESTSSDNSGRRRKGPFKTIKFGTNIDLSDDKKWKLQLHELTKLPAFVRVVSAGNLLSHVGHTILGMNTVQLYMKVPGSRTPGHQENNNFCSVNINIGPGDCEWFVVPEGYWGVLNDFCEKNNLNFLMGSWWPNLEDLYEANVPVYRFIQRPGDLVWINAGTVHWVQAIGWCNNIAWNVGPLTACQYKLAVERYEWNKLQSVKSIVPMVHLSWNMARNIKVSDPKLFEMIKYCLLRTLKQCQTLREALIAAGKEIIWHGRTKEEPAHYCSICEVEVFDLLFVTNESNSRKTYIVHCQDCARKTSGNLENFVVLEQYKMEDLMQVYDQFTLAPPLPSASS

Assays:
T47D tumors = assay: Mouse xenograft assay, T47D (ER(+)); assay type: in vivo
KDM6A (UTX) = KDM6A (UTX) (Homo sapiens, UniProt O15550); assay: KDM cell-free assay (AlphaScreen, BPS Bioscience); assay type: biochemical; settings: at 10 μM

| Structure (SMILES) | tumor volume (T47D tumors; 25 mg/kg for 8 weeks, control 4426 mm^3) [mm^3] | reduction in the growth of tumors relative to control (T47D tumors; athymic nude mice, 25 mg/kg body weight for 8 weeks) | reduction in the enzyme activity (KDM6A) (KDM6A (UTX)) [%] |
| --- | --- | --- | --- |
| COc1cccc(-c2cn(CCCCCn3ccc(=O)c(O)c3C)nn2)c1 [2j] | 884 | approx. 81% | – |
| Cc1c(O)c(=O)ccn1C [DFP, Deferiprone] | – | – | > 95 |
